{"sequences": {"note": "The chains behind the UniProt entries cited, without tags or fusion partners. Residues count along the entry.", "UniProt Q04HQ8, 1-488": "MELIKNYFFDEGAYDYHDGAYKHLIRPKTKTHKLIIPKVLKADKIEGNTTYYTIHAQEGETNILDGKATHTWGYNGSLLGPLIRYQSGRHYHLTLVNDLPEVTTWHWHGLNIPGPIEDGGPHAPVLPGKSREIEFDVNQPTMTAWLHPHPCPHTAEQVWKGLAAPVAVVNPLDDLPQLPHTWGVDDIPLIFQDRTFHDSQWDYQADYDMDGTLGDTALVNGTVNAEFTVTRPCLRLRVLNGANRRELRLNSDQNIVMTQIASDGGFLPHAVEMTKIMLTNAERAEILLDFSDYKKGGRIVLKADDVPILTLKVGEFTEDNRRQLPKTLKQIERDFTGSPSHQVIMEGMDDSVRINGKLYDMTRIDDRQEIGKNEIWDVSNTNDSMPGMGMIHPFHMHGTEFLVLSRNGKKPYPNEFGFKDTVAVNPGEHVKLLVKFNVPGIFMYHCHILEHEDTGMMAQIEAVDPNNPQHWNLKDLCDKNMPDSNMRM"}, "source": "paper PMC11312515", "about": "“Biochemical and Structural Characterization of a Novel Psychrophilic Laccase (Multicopper Oxidase) Discovered from Oenococcus oeni 229 (ENOLAB 4002)” (International Journal of Molecular Sciences, 2024)", "target": "LcOe 229 (Oenococcus oeni, UniProt Q04HQ8)", "assay": "ABTS oxidation at OD420, […] min, residual activity", "settings": "2 mM ABTS, 0.1 mM CuSO4, McIlvaine buffer pH 2.5", "data": [{"smiles": "[N-]=[N+]=N", "values": [{"measurement": "% residual activity at 1 mM", "result": "< 15", "unit": "%"}]}]}
